Target: EZH2 (Homo sapiens)
Experiment: Inhibition of human N-terminal His-tagged EZH2/flag-tagged EED/SUZ12/AEBP2/RBAP48 A677G mutant (2 to end residues) expressed in baculovirus infected Sf9 insect cells using histone H3 (1 to 50 residues)-GGK as substrate after 2 hrs in presence of SAM by fluorescence assay

## CCc1c(N(CC)C2CCOCC2)cc2oc(C3CCN(C(C)C)CC3)cc2c1C(=O)NCc1c(C)cc(C)[nH]c1=O
  IC50: 4 nM
